Data as given in ChEMBL document CHEMBL4251577, “Synthesis and antiproliferative activity of pyrrolo[2,3-b]pyridine derivatives bearing the 1,8-naphthyridin-2-one moiety” (Eur J Med Chem, 2018).

How the values were obtained:
Homo sapiens [1] = species: Homo sapiens; test: Selectivity index, ratio of IC50 for cKIT (unknown origin) to IC50 for cMET (unknown origin)
Homo sapiens [2] = species: Homo sapiens; test: Selectivity index, ratio of IC50 for EGFR (unknown origin) to IC50 for cMET (unknown origin)
Homo sapiens [3] = species: Homo sapiens; test: Selectivity index, ratio of IC50 for VEGFR2 (unknown origin) to IC50 for cMET (unknown origin)

- Ratio IC50 (Homo sapiens [1]): 356
- Ratio IC50 (Homo sapiens [2]): 330
- Ratio IC50 (Homo sapiens [3]): 79.3
SMILES: O=C(Nc1ccc(Oc2ccnc3[nH]ccc23)c(F)c1)c1cc2cccnc2n(-c2ccc(F)cc2)c1=O
